Tests used:
[1] = molecular target: T1, HA-tagged hGnRHR (Homo sapiens, UniProt P30968); assay: Cell surface expression of HA-hGnRHR; type: cell-based; conditions: HeLa, 10^−7 M GnRH, 37°C
T1 sequence (P30968 1-328): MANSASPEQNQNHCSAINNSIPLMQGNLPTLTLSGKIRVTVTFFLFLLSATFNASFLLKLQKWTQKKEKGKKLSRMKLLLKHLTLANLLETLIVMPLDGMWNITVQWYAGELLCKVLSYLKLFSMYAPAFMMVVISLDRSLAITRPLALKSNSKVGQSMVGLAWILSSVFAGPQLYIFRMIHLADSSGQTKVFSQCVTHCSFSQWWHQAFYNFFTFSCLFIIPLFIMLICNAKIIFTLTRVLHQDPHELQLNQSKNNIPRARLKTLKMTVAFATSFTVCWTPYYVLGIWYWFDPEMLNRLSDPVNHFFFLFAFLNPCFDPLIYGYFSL

[2] = molecular target: T1, HA-tagged hGnRHR; assay: Trafficking, anti-HA loading with agonist present; type: cell-based; conditions: HeLa; 10^−7 M GnRH with anti-HA, 0–60 min, 37°C
[3] = molecular target: T2, HA-tagged h.XGnRHR (hGnRHR with added XGnRHR COOH tail) (Homo sapiens, UniProt P30968); assay: Cell surface expression of HA-h.XGnRHR; type: cell-based, human/Xenopus laevis; conditions: HeLa, 10^−7 M GnRH, 37°C
T2 sequence (P30968 1-328): T1 sequence (P30968 1-328)

In the case of gonadotropin-releasing hormone [GnRH], the “reduction in cell surface expression, IN3-pretreated cells” value ([1]; after 18 h 10^−7 M IN3) is reported as “pronounced reduction”, the “reduction in cell surface expression” value ([1]; no IN3 pretreatment) is reported as “did not measurably alter cell surface expression” and the “inclusion count (effect of agonist)” value [2] is reported as “increased”. For the same substance, the “reduction in cell surface expression, IN3-pretreated cells” value ([3]; after 18 h 10^−7 M IN3) was “pronounced reduction” and the “reduction in cell surface expression” value ([3]; no IN3 pretreatment) was “reduced expression”.
